The results in this text go back to PMC4460250, “Systems Pharmacology Dissecting Holistic Medicine for Treatment of Complex Diseases: An Example Using Cardiocerebrovascular Diseases Treated by TCM” (Evidence-based Complementary and Alternative Medicine : eCAM, 2015).

By UniProt entry, the sequences of proteins in these tests, tags left out.
UniProt P11309, whole entry: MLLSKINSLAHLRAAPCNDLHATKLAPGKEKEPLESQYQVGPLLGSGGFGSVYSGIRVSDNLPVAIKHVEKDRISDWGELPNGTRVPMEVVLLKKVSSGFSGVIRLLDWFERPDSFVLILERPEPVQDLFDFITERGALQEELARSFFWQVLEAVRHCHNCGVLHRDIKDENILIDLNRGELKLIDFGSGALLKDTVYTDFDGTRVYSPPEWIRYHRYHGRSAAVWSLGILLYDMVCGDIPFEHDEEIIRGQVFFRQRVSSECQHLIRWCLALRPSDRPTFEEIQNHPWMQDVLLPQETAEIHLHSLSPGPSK

The assay addresses PIM1 (Homo sapiens, UniProt P11309). Nature of the assay: PIM1 inhibition assay (ligand-binding assay, manufacturer's instructions). In kind it is biochemical. Particulars: read-out: IC50 (μM): mean ± SD.

The IC50 is the concentration that gives 50% inhibition.

In the case of Rhodiosin, the IC50 turned out to be 96 ± 3.2 µM.
